Ki, IC50 and EC50 data for five molecules are collected here from patent US20070190523A1 (priority 2002, published 2007).

Test [1] addresses recombinant HIV-1 protease (Human immunodeficiency virus type 1 group M subtype B, UniProt P04585). Put plainly: biochemical.
For the next test, the target named is WT (Human immunodeficiency virus type 1 group M subtype B, UniProt P04585). Briefly: cell-based. Also noted: species or system HIV.

Structures are written as SMILES.

One may read the Ki as the equilibrium dissociation constant of an inhibitor or competing ligand from its target. As for `CCOP(=O)(COc1ccc2c(c1)CCN(CC(NC(=O)OC1COC3OCCC13)C(O)CN(CC(C)C)S(=O)(=O)c1ccc(OC)cc1)C2)OCC` (centres unmarked), in test [1], the Ki is 0.1 to 1 nM.
On the same count and under the same terms, to `COc1ccc(S(=O)(=O)N(CC(C)C)CC(O)C(Cc2ccc(OCCOCP(=O)(O)O)cc2)NC(=O)OC2COC3OCCC23)cc1` (centres unmarked) [drawing 612 R1=OH R2=OH] belongs 0.01 to 0.1 nM.
Usually IC50 stands for the midpoint of a concentration-inhibition curve. With `CCOP(=O)(CCNC(=O)Oc1ccc(CC2C(O)C(O)C(Cc3ccc(OC)cc3)N(Cc3cccc(N)c3)C(=O)N2Cc2cccc(N)c2)cc1)OCC` (centres unmarked) [OCH3 / Ph-mNH2 / OCONH(CH2)2PO3Et2], the IC50 in test [1] worked out at 1.3 nM.
As usually defined, the EC50 is the concentration needed to bring the measured effect to its halfway point. High values mean lower potency in that assay, low ones higher potency in that assay. On WT, `CCOP(=O)(COc1ccc(CC2C(O)C(O)C(Cc3ccc(OC)cc3)N(Cc3cccnc3)C(=O)N2Cc2cccnc2)cc1)OCC` (centres unmarked) [OCH3, m-pyridine, OCH2PO3Et2] displayed a concentration giving a half-maximal response (EC50) of 115 nM.
`COc1ccc(S(=O)(=O)N(CC(C)C)CC(O)C(CNc2ccc(CP(=O)(O)O)cc2)NC(=O)OC2COC3OCCC23)cc1` (centres unmarked): the inhibition constant (Ki) in test [1] lay in the range of 0.01 to 0.1 nM.
